Laboratory results: US12115141B2, “Diagnosis of diabetes by detecting aggregated amylin in erythrocytes” (University of Kentucky Research Foundation, priority 2018, dated 2024)

Tested on: HIP rats
Settings: HIP rat kidneys

## CC(=O)N1CCC(NC(=O)NC23CC4CC(CC(C4)C2)C3)CC1 [APAU]
FIG. 22F
  renal accumulation of HIF-2α: lowered
FIG. 22G
  renal accumulation of HIF-1α: lowered
